Test system: creeping bentgrass (Agrostis palustris) turf
Settings: 6 applications every two weeks, 8 visual ratings combined, trinexapac-ethyl 514, paclobutrazol 280, prohexadione-calcium 154, flurprimidol 15 g ai/ha, B Sure 19,091 ml/ha in mixtures

SMILES: CC(C)C(O)(c1ccc(OC(F)(F)F)cc1)c1cncnc1 (stereo not shown) [Flurprimidol]
- % Phytotoxicity: 16%

Source: US20240237646A1, “METHODS OF DECREASING PLANT INJURY AND IMPROVING CROP YIELD” (priority 2023, published 2024)
